The values below come from patent US12161609B2, “Composition and method for treating autism spectrum disorder (ASD) symptoms of paranoia with self isolation and/or aggression” (priority 2021, dated 2024).

A value given as a limit tells only on which side of the number the result lay.

The data set deals with ASD aggression toward others or self and paranoia/social isolation.

`Cc1nc2n(c(=O)c1CCN1CCC(c3noc4cc(F)ccc34)CC1)CCCC2` [risperidone]: the “dyskinesia / tardive dyskinesia and dystonias” value (Example 1: ASD person) is “caused development of dyskinesia and dystonias”. Also, the “time to development of dyskinesia and dystonias” value (Example 1: ASD person, on risperidone) is reported as at most 2 weeks. Further, the tardive dyskinesia entry (Example 2: ASD person) was “developed tardive dyskinesia”. The “tardive dyskinesia / dystonic side effects” value (summary over the ASD subjects, long-term use (two years for the antipsychotics)) was “developed tardive dyskinesia”.
